Yeast mating assay 1: variants of the scFv Ab-14

Binding partner: SARS-CoV-2 spike HR2 peptide, sequence PDVDLGDISGINAS.

Ab-14 is the parent antibody, in scFv form: VH, then a 15-residue (Gly4Ser)3 linker, then VL. The heavy chain is unchanged in all variants.
VH: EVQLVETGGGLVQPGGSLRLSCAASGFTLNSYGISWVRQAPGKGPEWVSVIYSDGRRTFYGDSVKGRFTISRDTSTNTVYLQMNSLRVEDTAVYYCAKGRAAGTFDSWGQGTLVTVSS
VL: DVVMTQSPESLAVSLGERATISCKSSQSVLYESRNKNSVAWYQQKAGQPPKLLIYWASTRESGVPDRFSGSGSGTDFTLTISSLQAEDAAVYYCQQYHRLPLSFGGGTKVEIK

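Phage display of a naive human antibody library on the peptide gave the parent. AAYL50 was designed without a model: most single CDR substitutions and a random sample of double and triple ones. Affinity was read by AlphaSeq, a pooled yeast mating assay with surface-displayed partners. Binding brings cells together so that they mate, and sequencing counts the barcode pairs among the diploids. Scores were corrected for input abundance and mapped to Kd with protein pairs of known affinity run in the same pool. There are three technical replicates.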

Each variant is given by its three light chain CDRs, as the data file delimits them; those of the parent are KSSQSVLYESRNKNSVA, WASTRES, QQYHRLPLS. Values are log10 of the apparent Kd in nM; lower means stronger binding. Replicates are averaged; those with no signal do not enter the mean. "n.d." means that the variant was in the library but no mating with the target was seen in that replicate; the authors take this as a sign of poor binding, and no number exists.

CDR-L1	CDR-L2	CDR-L3	log10 Kd (nM) by replicate	log10 Kd (nM), mean	empty controls
KSSQSVVYESRNKNSVG	WASTRES	QQYHHLPLS	n.d. n.d. n.d.	n.d.	0/9
KSSQSVLEESRNKPSVA	WASTRES	QQYHRLPLS	n.d. n.d. 2.55	2.55	0/9
KPSQSVLYESRNKNSVA	WASTRES	QQPHRLPLS	4.68 n.d. n.d.	4.68	3/9 (4.06)
GSSQSVLYESRHKNSVA	WASTRES	QQYHKLPLS	4.07 3.02 3.61	3.57	2/9 (4.93)
ISSQSVLQESRNKNSVA	WHSTRES	QQYHRLPLS	5.90 4.22 5.74	5.29	3/9 (4.17)
KSLQSVLYESRNKNSVA	WASTEES	QQYHRRPLS	n.d. n.d. n.d.	n.d.	0/9
KSSQSVLYQSDNKNSVA	WRSTRES	QQYHRLPLS	2.18 3.46 3.30	2.98	0/9
KSSQSVLYESPNKNSVA	IASTRES	QQYARLPLS	2.40 2.55 3.33	2.76	0/9
KSSQSVLYESRNKNVVA	WDSTRAS	QQYHRLPLS	n.d. n.d. n.d.	n.d.	0/9
QSSQSVLYESRNCNSVA	WASTRES	QQSHRLPLS	n.d. 3.24 n.d.	3.24	2/9 (2.88)
KSSQSVLSESRNKNSVA	WASTRSA	QQYHRLPLS	0.68 0.91 0.81	0.80	1/9 (5.00)
KSSQSVLYNSRNKNSVA	WASYGES	QQYHRLPLS	n.d. n.d. n.d.	n.d.	1/9 (2.31)
FSSQSVLYECRNKNSVA	WASTRES	QQYHRLPLS	n.d. n.d. n.d.	n.d.	0/9
KNSQSVLYESRNKNSVA	WASTRES	QQYHRLPLS	1.36 1.57 1.68	1.54	3/9 (4.05)
KSSQSVLYESRNKNSVA	WAETRES	QQYHRLPLN	1.87 2.24 1.86	1.99	0/9
MSSQSVLYESRNKNSVE	WASTGES	QQYHRLPLS	n.d. n.d. n.d.	n.d.	0/9
KSSQSVLYESRNKNSVA	WAGTRHS	QQYHRLSLS	n.d. 4.76 5.49	5.13	2/9 (3.99)
WSSQSVLYVSRNKNSVA	WASTRES	QQYHRLPLS	n.d. n.d. n.d.	n.d.	1/9 (4.10)
KSSQSVLYESRNKNSVA	WASTRES	YLYHRLPNS	4.59 n.d. n.d.	4.59	1/9 (3.94)
KSSQSVLYESRNKNSVA	WASTDES	QVYHRLPLS	3.92 4.21 n.d.	4.07	3/9 (4.06)
KSSQSVLYESRNKNSVK	WADTRES	QQIHRLPLS	n.d. n.d. n.d.	n.d.	0/9
PSSQSVLYESRNKNSVA	WASTRES	QQFHGLPLS	4.24 3.87 4.37	4.16	4/9 (3.79)
KSSQSVLYSSRNKNSVA	WAHTRER	QQYHRLPLS	1.94 1.81 1.73	1.83	0/9
KSSQSVLYESRNKNSVA	WSSTQES	QQYYRLPLS	n.d. 2.93 n.d.	2.93	1/9 (3.75)
KSSQSVLYESRNTNSVA	WASTREH	QQYHRKPLS	1.81 1.99 1.76	1.85	1/9 (3.07)
KSSQSVLYESANKNSVA	SASTRES	GQYHRLPLS	1.24 1.16 1.21	1.20	8/9 (4.33)
KSSQCVLYEYRNKNSVA	WASTREM	QQYHRLPLS	3.04 n.d. n.d.	3.04	0/9
KSSQSVLYESRNKNSVA	WASTRES	LQYVRLPLS	4.00 2.06 2.60	2.89	0/9
KSSQSVHYESRNKDSVA	WASTRES	QQEHRLPLS	n.d. n.d. n.d.	n.d.	3/9 (2.77)
KSSQSVLYCSRNKNSVA	WASTRTS	QQNHRLPLS	5.40 n.d. n.d.	5.40	4/9 (3.77)
KSSQSVLYESRNKNSVA	QASGRES	QQYLRLPLS	0.58 1.03 0.73	0.78	0/9
KISQSVLYESRNKNSVA	WASTRCS	QQYHRLPFS	1.01 1.05 1.10	1.06	2/9 (6.00)
KSSQSVLYESRNKNSVA	WVSTKED	QQYHRLPLS	1.96 1.60 1.87	1.81	1/9 (2.91)
KSSQSVLYESRNKNSMA	WASTRES	HQYHRLPLS	n.d. 3.68 n.d.	3.68	0/9
KSSQSVLDESRSKNSVA	WLSTRES	QQYHRLPLS	1.62 1.62 1.31	1.52	0/9
KSSQSVLYESRNKESVA	WASTRES	QQNHRLPPS	2.75 1.92 2.07	2.25	0/9
KSSLSVLYESRNKNSVA	WASTRSS	QQYHRLPIS	n.d. n.d. n.d.	n.d.	0/9
KSSQLVLYESRNKNGVA	DASTRES	QQYHRLPLS	-0.09 0.24 -0.01	0.05	2/9 (5.33)
KSSQSVAYESRNKNSVA	WKSTRES	QQYMRLPLS	2.02 1.80 3.15	2.32	2/9 (4.17)
KSSQSVLYESKNKNSVR	HASTRES	QQYHRLPLS	4.61 3.50 5.00	4.37	3/9 (4.54)
KSSQSVLYESRNKNSNA	WASTRES	QQYHRTPLS	6.43 4.02 5.96	5.47	4/9 (4.27)
KSSQSVLYESRNKNSVA	WASWRES	QQYHAYPLS	n.d. 3.49 4.41	3.95	5/9 (4.17)
KSSQSVLYASRNKNSVA	YAETRES	QQYHRLPLS	0.96 0.96 0.86	0.93	0/9
KSSQSKLYESRNKNSVA	WNSTRES	QQYHRNPLS	4.57 n.d. 3.47	4.02	6/9 (4.18)
KSSQSVLYEKRNKNSVA	WASTRES	QQYHRLPLS	1.69 1.90 2.27	1.95	1/9 (3.98)
KSSQSVLYESRNKNSVA	WHSTRES	QQCHRLPLS	n.d. n.d. n.d.	n.d.	1/9 (4.33)
KSSQSVLYESRNKNSVA	WASTVES	QQYHNLPLS	3.04 2.74 2.43	2.73	4/9 (4.31)
KSPQSVRYESRNKNSVA	WASTRES	QQYHMLPLS	0.86 1.29 1.12	1.09	3/9 (3.83)
KSSQSVLYESANKNSVA	WAFTRES	QQYHRLPLS	1.47 1.65 1.67	1.60	1/9 (4.19)

Picked from the list: the 6 lowest averages where every replicate gave a value.

{"CDR-L1": "KSSQLVLYESRNKNGVA", "CDR-L2": "DASTRES", "CDR-L3": "QQYHRLPLS", "log10 Kd (nM) by replicate": "-0.09 0.24 -0.01", "log10 Kd (nM), mean": "0.05", "empty controls": "2/9 (5.33)"}
{"CDR-L1": "KSSQSVLYESRNKNSVA", "CDR-L2": "QASGRES", "CDR-L3": "QQYLRLPLS", "log10 Kd (nM) by replicate": "0.58 1.03 0.73", "log10 Kd (nM), mean": "0.78", "empty controls": "0/9"}
{"CDR-L1": "KSSQSVLSESRNKNSVA", "CDR-L2": "WASTRSA", "CDR-L3": "QQYHRLPLS", "log10 Kd (nM) by replicate": "0.68 0.91 0.81", "log10 Kd (nM), mean": "0.80", "empty controls": "1/9 (5.00)"}
{"CDR-L1": "KSSQSVLYASRNKNSVA", "CDR-L2": "YAETRES", "CDR-L3": "QQYHRLPLS", "log10 Kd (nM) by replicate": "0.96 0.96 0.86", "log10 Kd (nM), mean": "0.93", "empty controls": "0/9"}
{"CDR-L1": "KISQSVLYESRNKNSVA", "CDR-L2": "WASTRCS", "CDR-L3": "QQYHRLPFS", "log10 Kd (nM) by replicate": "1.01 1.05 1.10", "log10 Kd (nM), mean": "1.06", "empty controls": "2/9 (6.00)"}
{"CDR-L1": "KSPQSVRYESRNKNSVA", "CDR-L2": "WASTRES", "CDR-L3": "QQYHMLPLS", "log10 Kd (nM) by replicate": "0.86 1.29 1.12", "log10 Kd (nM), mean": "1.09", "empty controls": "3/9 (3.83)"}

Parent in this assay: reference entry 0.65, copy in this library 1.68. As a blank, each scFv also met three strains without target: over library AAYL50, 18% of these pairings were detected, typically at 4.19 and seldom below 2.99. Also given: how often the same scFv was detected with the empty control strains, with their mean in brackets.

Reference: Engelhart et al. 2022, doi:10.1038/s41597-022-01779-4. File: FLAb, binding data.